{"source": "patent US20240158368A1", "about": "“Pyrrolidine Main Protease Inhibitors as Antiviral Agents” (AbbVie Inc., priority 2022, published 2024)", "test_system": "A172, PC3, HepG2 and IPSC-derived cardiomyocytes", "conditions": "up to 300 μM, with and without valspodar, 4 cell types", "data": [{"smiles": "C=C(C)[C@H]1Cc2c(ccc3c2O[C@@H]2COc4cc(OC)c(OC)cc4[C@@H]2C3=O)O1", "note": "[rotenone]", "values": [{"measurement": "Mitochondrial toxicity (cytotoxicity in glucose- vs galactose-based media)", "value": "pronounced increase in cytotoxicity in galactose-based media"}]}]}
